# Reference: publication PMC3742231 (International Journal of Molecular Sciences, 2013)
# Read-outs that look alike come from different tables or passages of the source.
# Details: 0-120 h, 10 mg racemic warfarin
Compound,"AUCt, mean (CV%) (OSP (+))","AUCt, mean (CV%) (OSP (−))"
CC(=O)C[C@H](c1ccccc1)c1c(O)c2ccccc2oc1=O [R-Warfarin],27.8 (19.6) μg h/mL,26.2 (18.7) μg h/mL
"CC(=O)C[C@@H](c1ccccc1)c1c(O)c2ccccc2oc1=O [S-Warfarin, S-warfarin]",18.0 (28.3) μg h/mL,17.2 (27.4) μg h/mL
